Data published in patent publication US12171806B2, “Therapeutic regimens and methods for lowering blood glucose and/or body weight using GLP-1R and GCGR balanced agonists” (priority 2021, dated 2024).

Test: Phase 1 MAD study of ALT-801: adverse events (TEAEs), safety overview

CC[C@H](C)[C@H](NC(=O)[C@H](Cc1ccccc1)NC(=O)[C@H](CCC(=O)O)NC(=O)[C@@H]1CCCCNC(=O)CC[C@H](NC(=O)[C@H](CC(=O)O)NC(=O)[C@H](CC(C)C)NC(=O)[C@H](Cc2ccc(O)cc2)NC(=O)[C@H](CCCCN)NC(=O)[C@H](CO)NC(=O)[C@H](Cc2ccc(O)cc2)NC(=O)[C@H](CC(=O)O)NC(=O)[C@H](CO)NC(=O)[C@@H](NC(=O)[C@H](Cc2ccccc2)NC(=O)[C@@H](NC(=O)CNC(=O)[C@H](CCC(N)=O)NC(=O)C(C)(C)NC(=O)[C@@H](N)Cc2c[nH]cn2)[C@@H](C)O)[C@@H](C)O)C(=O)N[C@@H](CCCCNC(=O)[C@H]2O[C@@H](OCCCCCCCCCCCCCCCCCC(=O)O)[C@H](O)[C@@H](O)[C@@H]2O)C(=O)N[C@@H](C)C(=O)N[C@@H](C)C(=O)N1)C(=O)N[C@@H](CCC(N)=O)C(=O)N[C@@H](Cc1c[nH]c2ccccc12)C(=O)N[C@@H](CC(C)C)C(=O)N[C@@H](CC(C)C)C(=O)N[C@@H](CCC(N)=O)C(=O)N[C@H](C(N)=O)[C@@H](C)O [ALT-801, pemvidutide]
TEAE Infections and infestations; Severe; n (M1 1.2 mg (N = 7)): 0 | TEAE Injection site bruising; Mild; % (M1 1.2 mg (N = 7)): (0.0%) | TEAE Injection site bruising; Mild; n (M1 1.2 mg (N = 7)): 0 | TEAE Injection site bruising; Moderate; % (M1 1.2 mg (N = 7)): (0.0%) | TEAE Injection site bruising; Moderate; n (M1 1.2 mg (N = 7)): 0 | TEAE Injection site bruising; PLT; % (M1 1.2 mg (N = 7)): (0.0%) | TEAE Injection site bruising; PLT; n (M1 1.2 mg (N = 7)): 0 | TEAE Injection site bruising; Severe; % (M1 1.2 mg (N = 7)): (0.0%) | TEAE Injection site bruising; Severe; n (M1 1.2 mg (N = 7)): 0 | TEAE Injection site dermatitis; Mild; % (M1 1.2 mg (N = 7)): (0.0%) | TEAE Injection site dermatitis; Mild; n (M1 1.2 mg (N = 7)): 0 | TEAE Injection site dermatitis; Moderate; % (M1 1.2 mg (N = 7)): (0.0%) | TEAE Injection site dermatitis; Moderate; n (M1 1.2 mg (N = 7)): 0 | TEAE Injection site dermatitis; PLT; % (M1 1.2 mg (N = 7)): (0.0%) | TEAE Injection site dermatitis; PLT; n (M1 1.2 mg (N = 7)): 0 | TEAE Injection site dermatitis; Severe; % (M1 1.2 mg (N = 7)): (0.0%) | TEAE Injection site dermatitis; Severe; n (M1 1.2 mg (N = 7)): 0 | TEAE Nausea; Mild; % (M1 1.2 mg (N = 7)): (14.3%) | TEAE Nausea; Mild; n (M1 1.2 mg (N = 7)): 1 | TEAE Nausea; Moderate; % (M1 1.2 mg (N = 7)): (14.3%) | TEAE Nausea; Moderate; n (M1 1.2 mg (N = 7)): 1 | TEAE Nausea; PLT; % (M1 1.2 mg (N = 7)): (0.0%) | TEAE Nausea; PLT; n (M1 1.2 mg (N = 7)): 0 | TEAE Nausea; Severe; % (M1 1.2 mg (N = 7)): (0.0%) | TEAE Nausea; Severe; n (M1 1.2 mg (N = 7)): 0 | TEAE Palpitation; Mild; % (M1 1.2 mg (N = 7)): (0.0%) | TEAE Palpitation; Mild; n (M1 1.2 mg (N = 7)): 0 | TEAE Palpitation; Moderate; % (M1 1.2 mg (N = 7)): (0.0%) | TEAE Palpitation; Moderate; n (M1 1.2 mg (N = 7)): 0 | TEAE Palpitation; PLT; % (M1 1.2 mg (N = 7)): (0.0%) | TEAE Palpitation; PLT; n (M1 1.2 mg (N = 7)): 0 | TEAE Palpitation; Severe; % (M1 1.2 mg (N = 7)): (0.0%) | TEAE Palpitation; Severe; n (M1 1.2 mg (N = 7)): 0 | TEAE Peripheral swelling; Mild; % (M1 1.2 mg (N = 7)): (0.0%) | TEAE Peripheral swelling; Mild; n (M1 1.2 mg (N = 7)): 0 | TEAE Peripheral swelling; Moderate; % (M1 1.2 mg (N = 7)): (0.0%) | TEAE Peripheral swelling; Moderate; n (M1 1.2 mg (N = 7)): 0 | TEAE Peripheral swelling; PLT; % (M1 1.2 mg (N = 7)): (0.0%) | TEAE Peripheral swelling; PLT; n (M1 1.2 mg (N = 7)): 0 | TEAE Peripheral swelling; Severe; % (M1 1.2 mg (N = 7)): (0.0%) | TEAE Peripheral swelling; Severe; n (M1 1.2 mg (N = 7)): 0 | TEAE Rectal haemorrhage; Mild; % (M1 1.2 mg (N = 7)): (0.0%) | TEAE Rectal haemorrhage; Mild; n (M1 1.2 mg (N = 7)): 0 | TEAE Rectal haemorrhage; Moderate; % (M1 1.2 mg (N = 7)): (0.0%) | TEAE Rectal haemorrhage; Moderate; n (M1 1.2 mg (N = 7)): 0 | TEAE Rectal haemorrhage; PLT; % (M1 1.2 mg (N = 7)): (0.0%) | TEAE Rectal haemorrhage; PLT; n (M1 1.2 mg (N = 7)): 0 | TEAE Rectal haemorrhage; Severe; % (M1 1.2 mg (N = 7)): (0.0%) | TEAE Rectal haemorrhage; Severe; n (M1 1.2 mg (N = 7)): 0 | TEAE Tachycardia; Mild; % (M1 1.2 mg (N = 7)): (0.0%) | TEAE Tachycardia; Mild; n (M1 1.2 mg (N = 7)): 0 | TEAE Tachycardia; Moderate; % (M1 1.2 mg (N = 7)): (0.0%) | TEAE Tachycardia; Moderate; n (M1 1.2 mg (N = 7)): 0 | TEAE Tachycardia; PLT; % (M1 1.2 mg (N = 7)): (0.0%) | TEAE Tachycardia; PLT; n (M1 1.2 mg (N = 7)): 0 | TEAE Tachycardia; Severe; % (M1 1.2 mg (N = 7)): (0.0%) | TEAE Tachycardia; Severe; n (M1 1.2 mg (N = 7)): 0 | TEAE Tooth impacted; Mild; % (M1 1.2 mg (N = 7)): (0.0%) | TEAE Tooth impacted; Mild; n (M1 1.2 mg (N = 7)): 0 | TEAE Tooth impacted; Moderate; % (M1 1.2 mg (N = 7)): (0.0%) | TEAE Tooth impacted; Moderate; n (M1 1.2 mg (N = 7)): 0 | TEAE Tooth impacted; PLT; % (M1 1.2 mg (N = 7)): (0.0%) | TEAE Tooth impacted; PLT; n (M1 1.2 mg (N = 7)): 0 | TEAE Tooth impacted; Severe; % (M1 1.2 mg (N = 7)): (0.0%) | TEAE Tooth impacted; Severe; n (M1 1.2 mg (N = 7)): 0 | TEAE Toothache; Mild; % (M1 1.2 mg (N = 7)): (0.0%) | TEAE Toothache; Mild; n (M1 1.2 mg (N = 7)): 0 | TEAE Toothache; Moderate; % (M1 1.2 mg (N = 7)): (0.0%) | TEAE Toothache; Moderate; n (M1 1.2 mg (N = 7)): 0 | TEAE Toothache; PLT; % (M1 1.2 mg (N = 7)): (0.0%) | TEAE Toothache; PLT; n (M1 1.2 mg (N = 7)): 0 | TEAE Toothache; Severe; % (M1 1.2 mg (N = 7)): (0.0%) | TEAE Toothache; Severe; n (M1 1.2 mg (N = 7)): 0 | TEAE Vessel puncture site pain; Mild; % (M1 1.2 mg (N = 7)): (0.0%) | TEAE Vessel puncture site pain; Mild; n (M1 1.2 mg (N = 7)): 0 | TEAE Vessel puncture site pain; Moderate; % (M1 1.2 mg (N = 7)): (0.0%) | TEAE Vessel puncture site pain; Moderate; n (M1 1.2 mg (N = 7)): 0 | TEAE Vessel puncture site pain; PLT; % (M1 1.2 mg (N = 7)): (0.0%) | TEAE Vessel puncture site pain; PLT; n (M1 1.2 mg (N = 7)): 0 | TEAE Vessel puncture site pain; Severe; % (M1 1.2 mg (N = 7)): (0.0%) | TEAE Vessel puncture site pain; Severe; n (M1 1.2 mg (N = 7)): 0 | TEAE Vomiting; Mild; % (M1 1.2 mg (N = 7)): (14.3%) | TEAE Vomiting; Mild; n (M1 1.2 mg (N = 7)): 1 | TEAE Vomiting; Moderate; % (M1 1.2 mg (N = 7)): (0.0%) | TEAE Vomiting; Moderate; n (M1 1.2 mg (N = 7)): 0 | TEAE Vomiting; PLT; % (M1 1.2 mg (N = 7)): (0.0%) | TEAE Vomiting; PLT; n (M1 1.2 mg (N = 7)): 0 | TEAE Vomiting; Severe; % (M1 1.2 mg (N = 7)): (0.0%) | TEAE Vomiting; Severe; n (M1 1.2 mg (N = 7)): 0 | TEAE Cough, maximum severity Mild, subjects % (M1 1.2 mg ALT-801 (N = 7)): (0.0%)
